Measurements as given in US8795611B2 (priority 2009, dated 2014).

Settings: 36% (v/v) TBP in Isane IP 185; aqueous 360 g/L uranium, 2 mol/L nitric acid; after the 3rd contact (uranium depletion); 25° C.

SMILES: CCCCOP(=O)(OCCCC)OCCCC
- distribution coefficient of thorium 234, DTh: greater than 1
